Laboratory results as given in paper PMC467105, “A comprehensive investigation of the anion inhibition profile of a β-carbonic anhydrase from Acinetobacter baumannii for crafting innovative antimicrobial treatments” (Journal of Enzyme Inhibition and Medicinal Chemistry, 2024).

Chains of the proteins cited; added tags and fusions are not shown. Residues count along the entry.
UniProt A0A7U3Y636, 1-204: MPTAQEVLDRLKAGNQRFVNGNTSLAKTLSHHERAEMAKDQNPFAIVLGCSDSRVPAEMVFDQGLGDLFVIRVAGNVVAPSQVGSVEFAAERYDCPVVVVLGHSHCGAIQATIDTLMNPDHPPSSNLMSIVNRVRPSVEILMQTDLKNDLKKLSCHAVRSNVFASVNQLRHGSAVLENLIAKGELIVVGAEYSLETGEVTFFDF

What was measured:
[1] = biological target: PgiCAβ (Porphyromonas gingivalis β-CA); design: method as in PMID 24146373; conditions: cited from earlier work
[2] = biological target: β-AbauCA (Acinetobacter baumannii β-CA, CanB) (Acinetobacter baumannii, UniProt A0A7U3Y636); type: biochemical

| Molecule | Ki [1] | Ki [2] |
| --- | --- | --- |
| O=[Te](=O)(O)O [TeO4^2-, tellurate] | 3.9 mM |  |
| fluorosulfonate [FSO3^-] |  | 29.3 mM |
